Values joined by “and” are separate entries in the source; they are usually repeats but may differ in a detail not shown here. Identical values can stand only once. The list shows a part of the results, in another mix than the full data. Results filed as inconclusive are left out. Where a structure was tested more than once in an assay, its records may differ in their call. Active and inactive are the calls of the source. Unless noted, the call rests on the fitted dose curve; in most records, active means well fitted curve in the direction sought with a large enough effect in the repeat runs; inconclusive means weak or mixed curves; inactive means no such curve, though single readings can be large; an effect the other way counts as inactive or inconclusive.
Key:
[1] = qHTS assay for small molecule agonists of the p53 signaling pathway (AID 651631; calls by dose curve; further: nearly all actives have a fitted effect of over 15% in size); settings: HCT-116 p53RE-bla reporter, beta-lactamase FRET ratio, 16 h; at 73.3 µM (top of the series)
In short: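 We treat p53RE-bla HCT-116 cells with compounds for 16 h at 37 °C, add LiveBLAzer B/G FRET substrate for 2 h at room temperature, and measure fluorescence intensity.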

[2] = qHTS assay for small molecules that induce genotoxicity in human embryonic kidney cells expressing luciferase-tagged ATAD5 (AID 651632); settings: HEK293T ATAD5-luciferase induction, 16 h; series mostly up to 83.3 µM; further: nearly all actives have a fitted effect of over 15% in size; further: potency means the concentration at half of the fitted maximal effect
In short: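 DMSO vehicle served as the control. HEK293T reporter cells, 16 hr at 37C, then 30 min Amplite at room temperature; ATAD5 induction is measured as luciferase activity.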

[3] = qHTS assay for small molecules that induce genotoxicity in human embryonic kidney cells expressing luciferase-tagged ATAD5 - cell viability (AID 651634; calls by dose curve; further: nearly all actives have a fitted effect of over 25% in size); settings: HEK293T ATAD5-luc cells viability, CellTiter-Fluor, 15.5 h
In short: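 Here HEK293T cells with the ATAD5 luciferase reporter are incubated with test compounds for 15.5 hr, and cytotoxicity is then gauged by measuring protease activity in live cells using fluorescence.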

[4] = qHTS assay to test for compound auto fluorescence at 590 nm (red) in HepG2 cells (AID 720674); settings: HepG2 autofluorescence, red 540/590 nm, 1 h
In short: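 1 hr compound incubation on HepG2 cells, 37 C, 5% CO2; plate read ex 540 nm / em 590 nm; intensities reported as Rose Bengal sodium equivalents.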

[5] = qHTS assay to test for compound auto fluorescence at 460 nm (blue) in HEK293 cells (AID 720678); settings: blue autofluorescence 405/460 nm
In short: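 Cells were seeded and left to adhere for 4-5 hr at 37C. Compounds were then pin-transferred. After an overnight incubation at 37C under 5% CO2, intrinsic fluorescence at 405/460 nm was measured and referenced to triamterene.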

[6] = qHTS assay to test for compound auto fluorescence at 535 nm (green) in HEK293 cells (AID 720680); settings: green autofluorescence 485/535 nm
[7] = qHTS assay to test for compound auto fluorescence at 535 nm (green) in HEK293 cell free culture (AID 720682); settings: cell-free medium, green autofluorescence 485/535 nm, hits give high values
In short: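 Green-channel intensity (Ex/Em 485/535 nm) was recorded from compound-treated wells containing only DMEM with 10% FBS. Fluorescein provided the equivalency standard.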

[8] = qHTS assay to test for compound auto fluorescence at 590 nm (red) in HEK293 cell free culture (AID 720683); settings: cell-free medium autofluorescence, Ex540/Em590 red
In short: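 Red-channel autofluorescence of compounds in culture medium (DMEM, 10% FBS), no cells, measured at 540/590 nm. Rose Bengal sodium is the reference fluorophore for equivalence.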

[9] = qHTS assay to test for compound auto fluorescence at 590 nm (red) in HepG2 cell free culture (AID 720684); settings: cell-free medium autofluorescence, red 540/590 nm
In short: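 Cell-free; medium MEM + 10% FBS; compound or DMSO added by pintool; read Ex 540/Em 590 nm; Rose Bengal sodium as red reference fluorophore.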

[10] = qHTS assay for small molecule disruptors of the mitochondrial membrane potential (AID 720635); settings: HepG2 mitochondrial membrane potential, Mito-MPS dye ratio; series mostly up to 83.2 µM; further: potency means the concentration at half of the fitted maximal effect
In short: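 Mitochondrial membrane potential tracked with Mito-MPS dye, red aggregates (ex 540/em 590 nm) against green monomers (ex 490/em 535 nm). Compound treatment 1 hr at 37C, dye 30 min in HepG2.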
On the % scale 0 is the no-effect control and ±100 the full control effect.

Cc1c([N+](=O)[O-])cccc1[N+](=O)[O-]
inactive: activation [1] -2.45% and 1.22% | Potency [2] | activity, negative = cytotoxicity ([3]; at 83.3 µM (top of the series)) 27.8% and 15.3% | fluorescence, relative to Rose Bengal ([4]; at 91.3 µM (top of the series)) -0.781% and -0.0384% | fluorescence, % of triamterene ([5]; at 91.3 µM (top of the series)) -0.108% and -0.0054% | fluorescence, % of fluorescein ([6]; at 91.3 µM (top of the series)) -0.0533% and 0.0048% | activity change ([7]; at 91.3 µM (top of the series)) -0.0513% and -0.0271% | fluorescence, % of fluorescent control ([8]; at 91.3 µM (top of the series)) -0.774% and 0.0055% | fluorescence, % of Rose Bengal ([9]; at 91.3 µM (top of the series)) -0.0613% and 0.164%

O=[N+]([O-])c1cccc([N+](=O)[O-])c1
inactive: Potency [2] | activity, negative = cytotoxicity ([3]; at 83.3 µM (top of the series)) 2.34% | activity, negative = cytotoxicity ([3]; at 95.3 µM (top of the series)) 21.8% | fluorescence, relative to Rose Bengal ([4]; at 46 µM (top of the series)) 0.927% | fluorescence, relative to Rose Bengal ([4]; at 91.3 µM (top of the series)) 0.314% | fluorescence, % of triamterene ([5]; at 46 µM (top of the series)) -0.335% | fluorescence, % of triamterene ([5]; at 95.7 µM (top of the series)) -0.418% | fluorescence, % of fluorescein ([6]; at 46 µM (top of the series)) -0.068% | fluorescence, % of fluorescein ([6]; at 91.3 µM (top of the series)) 0.136% | activity change ([7]; at 46 µM (top of the series)) -0.0328% | activity change ([7]; at 95.7 µM (top of the series)) -0.137% | fluorescence, % of fluorescent control ([8]; at 46 µM (top of the series)) -0.25% | fluorescence, % of fluorescent control ([8]; at 91.3 µM (top of the series)) -0.821% | fluorescence, % of Rose Bengal ([9]; at 46 µM (top of the series)) -0.117% | fluorescence, % of Rose Bengal ([9]; at 95.7 µM (top of the series)) 0.237%

CCN(CC)CCCl
inactive: activity, negative = cytotoxicity ([3]; at 95.3 µM (top of the series)) -13.8% | fluorescence, relative to Rose Bengal ([4]; at 95.7 µM (top of the series)) 0.0168% | fluorescence, % of triamterene ([5]; at 95.7 µM (top of the series)) -0.412% | fluorescence, % of fluorescein ([6]; at 95.7 µM (top of the series)) -0.126% | activity change ([7]; at 95.7 µM (top of the series)) -0.0977% | fluorescence, % of fluorescent control ([8]; at 95.7 µM (top of the series)) -0.294% | fluorescence, % of Rose Bengal ([9]; at 95.7 µM (top of the series)) -0.0167%
active: Potency [2] 62 µM

CC(C)N(CCCl)C(C)C
inactive: activation [1] -2.06% | Potency [2] | activity, negative = cytotoxicity ([3]; at 83.3 µM (top of the series)) -9.47% | Potency [10] | fluorescence, relative to Rose Bengal ([4]; at 46 µM (top of the series)) 0.001% | fluorescence, % of triamterene ([5]; at 46 µM (top of the series)) -0.0079% | fluorescence, % of fluorescein ([6]; at 46 µM (top of the series)) 0.0036% | activity change ([7]; at 46 µM (top of the series)) -0.0165% | fluorescence, % of fluorescent control ([8]; at 46 µM (top of the series)) 0.228% | fluorescence, % of Rose Bengal ([9]; at 46 µM (top of the series)) 0.0413%

Cc1ccc([N+](=O)[O-])cc1[N+](=O)[O-]
active: Potency [10] 60.3 µM
inactive: activation [1] -3.39% and -3.71% | Potency [2] | activity, negative = cytotoxicity ([3]; at 83.3 µM (top of the series)) 12% and 13.6% | fluorescence, relative to Rose Bengal ([4]; at 91.3 µM (top of the series)) -0.0705% and -0.0651% | fluorescence, % of triamterene ([5]; at 91.3 µM (top of the series)) -0.0002% and 0.0082% | fluorescence, % of fluorescein ([6]; at 91.3 µM (top of the series)) 0.0397% and -0.0144% | activity change ([7]; at 91.3 µM (top of the series)) -0.0205% and 0.131% | fluorescence, % of fluorescent control ([8]; at 91.3 µM (top of the series)) -0.33% and 0.173% | fluorescence, % of Rose Bengal ([9]; at 91.3 µM (top of the series)) 0.0401% and 0.0481%

CC(C)OP(=O)(F)OC(C)C
inactive: activation [1] 2.27% | Potency [2] | activity, negative = cytotoxicity ([3]; at 83.3 µM (top of the series)) 12.8% | fluorescence, relative to Rose Bengal ([4]; at 46 µM (top of the series)) 0.357% | fluorescence, % of triamterene ([5]; at 46 µM (top of the series)) 0.0446% | fluorescence, % of fluorescein ([6]; at 46 µM (top of the series)) -0.0505% | activity change ([7]; at 46 µM (top of the series)) -0.0236% | fluorescence, % of fluorescent control ([8]; at 46 µM (top of the series)) 0.005% | fluorescence, % of Rose Bengal ([9]; at 46 µM (top of the series)) 0.0019%
